# Settings: mouse, in vivo, 25 mg/kg
# Experimental: Cyclophosphamide (CTX), used as the positive drug, was purchased from Sigma (St. Lousis, MO, USA. Detecting kits for IL-2, TNF-α, VEGF, AST, ALT, CRE and BUN were purchased from Nanjing Jiancheng Biotechnology Co. (Nanjing, China).
# 24 h after the last administration, the whole blood was collected from the orbit. Serum was obtained from whole blood by centrifugation (3500 rpm, 15 min, 4 °C) and stored at −20 °C. The levels of IL-2, TNF-α, VEGF, AST, ALT, BUN and CRE in serum were determined in accordance with the procedures described in commercial kit instructions.
smiles,measurement,value
"CC(C)(O)[C@H]1CC[C@@](C)(C2CC[C@]3(C)C2[C@H](O)CC2[C@@]4(C)CC[C@H](OC(=O)C5CCCN5)C(C)(C)C4CC[C@]23C)O1 (stereo partly drawn) [2e, (20S, 24R)-Epoxy-3β-O-(L-prolyl)-dammarane-12β, 25-diol]",BUN,"12.70 ± 2.24 ^#, ** mmol/L"
